Bioassay records from PubChem BioAssay.
Compounds with a hit are over-represented: about 0.46% of the library has one in this group of screens.
GIV Gai3 FP = inhibitors of GIV peptide binding to Galpha-i3, primary screen, biochemical, fluorescence polarization, FITC-GIV GBA peptide, rat Galphai3 | 90 min; hits give low values; scaled: aluminum fluoride 0%, vehicle 100% | percent of control (FP), % (concentration not given with the values) | 210,000 compounds, 0.42% hits | AID 1224905, 2016;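 active = replicate mean at 85% of control or lower, very high polarization wells dropped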;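 also: wells of about 15 µL received 100 nL stock; the first replicate is given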
HCMV NEC inh = cytomegalovirus nuclear egress complex inhibition; HTRF UL50-UL53 interaction, normalized percent inhibition; inhibition, % (test concentration not listed); 190,000 tested, 0.15% active; in the data active means inhibition above about 27%, passing the limit was not always enough
Of the large screens only hits and unclear results are named; the others gave an inactive call.

NC(=S)c1cc2ccccc2oc1=O	GIV Gai3 FP 6.0 (no result: HCMV NEC inh)
CCOC(=O)c1c(-c2cccs2)csc1/N=C/c1c(O)n(C)c2ccccc12	GIV Gai3 FP 44.5 (no result: HCMV NEC inh)
CCOC(=O)c1c(/N=C/c2c(O)n(C)c3ccccc23)sc(C)c1C	GIV Gai3 FP 52.3 (no result: HCMV NEC inh)
CCOC(=O)c1c(/N=C/c2c(O)n(C)c3ccccc23)sc2c1CCC2	none (no result: HCMV NEC inh)
CCOC(=O)c1c(-c2cccs2)csc1NC=O	none (no result: HCMV NEC inh)
COC(=O)CN1C(=O)C(=Cc2ccc(N(C)C)cc2)SC1=S	GIV Gai3 FP -41.9 (no result: HCMV NEC inh)
COC(=O)CN1C(=O)/C(=C\c2ccc(O)cc2)SC1=S	GIV Gai3 FP -41.9 (no result: HCMV NEC inh)
CCN1C(=O)/C(=C\c2ccc(OCC(N)=O)c(OC)c2)SC1=S	none (no result: GIV Gai3 FP)
CCCN1C(=O)/C(=C/c2ccc(O)c(OC)c2)SC1=S	GIV Gai3 FP -34.0
CCOC(=O)CN1C(=O)/C(=C/c2ccccc2)SC1=S	none (no result: GIV Gai3 FP)
COC(=O)CN1C(=O)S/C(=C\c2ccccc2)C1=O	none
O=C(Oc1cccc2c1C(=O)C=CC2=O)c1ccccc1	HCMV NEC inh 65.1
O=C(Oc1ccccc1OC(=O)c1ccccc1)c1ccccc1	none (no result: HCMV NEC inh)
COc1ccc(C(=O)N2CC(OCc3ccc(F)cc3Cl)C2)cc1OC	none
CCC(C(=O)N(C)Cc1ccccc1)N1CCN(Cc2ccc(F)cc2)C(=O)C1=O (stereo not drawn)	none
Cc1csc(NC(=O)CN2C(=O)C(C)(C)c3cc(S(=O)(=O)N4CCCC4)ccc32)n1	none
CCCn1c(=O)c2c(nc3n2CCCN3c2ccc(OCC)cc2)n(C)c1=O	none
CCCN1C(=O)/C(=C/c2ccc(-c3ccc(Br)cc3)o2)NC1=S	GIV Gai3 FP -83.0
CCCN1C(=O)/C(=C/c2ccc(-c3cccc(C(F)(F)F)c3)o2)NC1=S	none
CCC(C)NC(=O)c1cc2c(Cl)ccc3c2n1CC(CC)O3 (stereo not drawn)	none
COc1ccccc1/C=C1\N=C(c2ccc(OC)c(OC)c2)N(c2ccc(Cl)cc2)C1=O	GIV Gai3 FP 76.7 (no result: HCMV NEC inh)
COc1ccc(/C=C2\N=C(c3ccc(Cl)cc3)N(c3ccccc3Br)C2=O)cc1OC	GIV Gai3 FP 66.7 (no result: HCMV NEC inh)
COc1ccc(/C=C2\N=C(c3ccc(Cl)cc3)N(c3cc(Cl)ccc3C)C2=O)cc1OC	none (no result: HCMV NEC inh)
COc1cccc(C2=N/C(=C\c3ccccc3OC)C(=O)N2c2ccc(C)c(F)c2)c1	GIV Gai3 FP 60.7 (no result: HCMV NEC inh)
COc1ccccc1/C=C1\N=C(c2ccc(OC)c(OC)c2)N(c2ccc(Cl)c(Cl)c2)C1=O	none (no result: HCMV NEC inh)
COc1cccc(C2=N/C(=C/c3ccccc3OC)C(=O)N2c2ccc(OC)c(OC)c2)c1	none (no result: HCMV NEC inh)
O=C(CN1C(=O)CSc2ncccc21)NCc1cccc(Br)c1	none
CN(C)/C=C(\C#N)C(=O)NC1CCCCC1	none
O=C1S/C(=C\C=C\c2ccco2)C(=O)N1c1ccccc1	none
O=C(O)C(Cc1ccccc1)N1C(=O)/C(=C/C=C/c2ccco2)SC1=S (stereo not drawn)	HCMV NEC inh 70.5
COC(=O)c1cc2sc(Cl)cc2n1Cc1nc(-c2ccc(OC)c(OC)c2)oc1C	none
O=C(Nc1ccc2snnc2c1)NC1CC1	HCMV NEC inh 47.7
CNC(=O)Nc1ccc2snnc2c1	none (no result: HCMV NEC inh)
Cc1cccnc1NC(=O)c1c(O)c2cc(F)cc3c2n(c1=O)C(C)CC3 (stereo not drawn)	none
CCc1ccc(S(=O)(=O)c2nnn3c2nc(NC(C)C)c2sccc23)cc1	none (no result: HCMV NEC inh)
CC(C)Nc1nc2c(S(=O)(=O)c3ccccc3)nnn2c2ccsc12	HCMV NEC inh 37.0
Cc1ccc2nc(/C(C#N)=C/c3ccc(-c4cccc(Cl)c4)o3)[nH]c2c1	none
N#C/C(=C/c1ccc(-c2ccc(C(=O)O)cc2)o1)c1ccc(Cl)cc1	none
N#C/C(=C\c1ccc(-c2ccc(Cl)c(C(=O)O)c2)o1)c1nc2ccccc2[nH]1	GIV Gai3 FP -57.5
N#C/C(=C\c1ccc(-c2ccc(C(=O)O)cc2)o1)c1nc2ccccc2[nH]1	GIV Gai3 FP -6.1
Nc1ccc(OC(F)F)cc1	none (no result: GIV Gai3 FP)
Cc1ccc2c(c1)c(=O)c1ccccc1n2CC(=O)N1CCN(c2ccc(F)cc2)CC1	none
CCOCCCNC(=O)c1nnc(-c2oc3ccccc3c2C)o1	none
Cc1cccn2c(=O)c(/C=C3\SC(=S)N(CCCC(=O)O)C3=O)c(NCCc3ccccc3)nc12	none (no result: HCMV NEC inh)
Cc1cccn2c(=O)c(/C=C3\SC(=S)N(CCCC(=O)O)C3=O)c(N3CCCCC3)nc12	GIV Gai3 FP 39.6 (no result: HCMV NEC inh)
Cc1cccn2c(=O)c(/C=C3\SC(=S)N(C)C3=O)c(N3CCCC3)nc12	GIV Gai3 FP -36.2 (no result: HCMV NEC inh)
COCCCN1C(=O)/C(=C\c2c(N3CC(C)OC(C)C3)nc3c(C)cccn3c2=O)SC1=S (stereo not drawn)	none (no result: HCMV NEC inh)
N#CCCn1c(SCC(=O)c2ccc(Cl)s2)nc2ccccc21	none (no result: GIV Gai3 FP)
Cn1c(SCCOc2ccccc2)nc2ccccc21	none (no result: GIV Gai3 FP)
CCc1ccc(NC(=O)CSc2nc3ccccc3c(=O)n2CCc2ccc(S(N)(=O)=O)cc2)cc1	none
O=C(Cn1ccccc1=O)Nc1ccc2c(c1)OC1(CCCC1)O2	none (no result: GIV Gai3 FP)
Cc1cccc(CNC2=NCCNC23CCCC(C)C3)c1 (stereo not drawn)	none (no result: HCMV NEC inh)
Nc1c(C(=O)Nc2ccc(F)c(F)c2)sc2nc(-c3ccncc3)ccc12	none
Cc1ccc(NC(=O)c2sc3nc(-c4ccncc4)ccc3c2N)cc1	GIV Gai3 FP -53.5
N#CC(C(=O)c1ccc(F)cc1)c1ccccn1 (stereo not drawn)	none (no result: GIV Gai3 FP)
O=C1/C(=C/C2=Cc3ccccc3OC2)SC(=S)N1C1CCS(=O)(=O)C1 (stereo not drawn)	GIV Gai3 FP -34.6
O=C1/C(=C/c2cn(-c3ccccc3)nc2-c2ccc(Cl)cc2)SC(=S)N1C1CCS(=O)(=O)C1 (stereo not drawn)	none
COCCCNC(=O)c1ccc2c(c1)nc1n2CCOC1	none (no result: HCMV NEC inh)
COc1ccc(C2CC(=O)C3=C(C2)Nc2ccccc2NC3c2ccccc2Br)cc1 (stereo not drawn)	none
COc1ccc(C2CC(=O)C3=C(C2)Nc2ccccc2NC3c2cc([N+](=O)[O-])ccc2Cl)cc1 (stereo not drawn)	HCMV NEC inh 41.0
CC1CCN(c2cc(NCc3ccccc3)c3c4c(onc24)-c2ccccc2C3=O)CC1	GIV Gai3 FP -4.4
CC(C)Nc1cc(Br)c2noc3c2c1C(=O)c1ccccc1-3	GIV Gai3 FP -54.6 (no result: HCMV NEC inh)
CCNc1cc(N2CCC3(CC2)OCCO3)c2noc3c2c1C(=O)c1ccccc1-3	none
CC1CCN(c2cc(NC(C)C)c3c4c(onc24)-c2ccccc2C3=O)CC1	GIV Gai3 FP -4.4
Cc1ccccc1Nc1cc(N2CCCCC2)c2noc3c2c1C(=O)c1ccccc1-3	none (no result: HCMV NEC inh)
O=C1c2ccccc2-c2onc3c(Br)cc(NC4CCCCC4)c1c23	none
CC(C)CNc1cc(N2CCC(C)CC2)c2noc3c2c1C(=O)c1ccccc1-3	none
CCNc1cc(N2CCOCC2)c2noc3c2c1C(=O)c1ccccc1-3	GIV Gai3 FP -31.4
COC(=O)C1CCN(C(=O)C(C)(C)C)CC1	none
CCc1ccc(S(=O)(=O)c2cnc(N3CCN(c4ccccn4)CC3)nc2N)cc1	none (no result: HCMV NEC inh)
O=S(=O)(c1ccc(Br)cc1)N1CCc2[nH]ncc2C1	none
CN(C)CCCNc1cc(N2CCN(C3CCCCC3)CC2)c2noc3c2c1C(=O)c1ccccc1-3	GIV Gai3 FP -7.2
Cc1ccccc1Nc1cc(N2CCCC2)c2noc3c2c1C(=O)c1ccccc1-3	none (no result: HCMV NEC inh)
O=C1c2ccccc2-c2onc3c(N4CCN(C5CCCCC5)CC4)cc(NCCO)c1c23	none
CC(C)Nc1cc(N2CCN(Cc3ccc4c(c3)OCO4)CC2)c2noc3c2c1C(=O)c1ccccc1-3	GIV Gai3 FP -31.4
COC(=O)C1=C(C)NC2=C(C(=O)CC(c3ccc(Cl)cc3)C2)C1c1ccccc1 (stereo not drawn)	none (no result: HCMV NEC inh)
